For two compounds, Ki results are on record in US7238666B2, “Method of inhibiting fibrosis with a somatostatin agonist” (Societe de Conseils de Recherches et d'Applications …, priority 1996, dated 2007).

Chains of the proteins cited; added tags and fusions are not shown. Lines headed by an entry give the natural chain unless they say otherwise; changes in a name come on top.
UniProt P30874: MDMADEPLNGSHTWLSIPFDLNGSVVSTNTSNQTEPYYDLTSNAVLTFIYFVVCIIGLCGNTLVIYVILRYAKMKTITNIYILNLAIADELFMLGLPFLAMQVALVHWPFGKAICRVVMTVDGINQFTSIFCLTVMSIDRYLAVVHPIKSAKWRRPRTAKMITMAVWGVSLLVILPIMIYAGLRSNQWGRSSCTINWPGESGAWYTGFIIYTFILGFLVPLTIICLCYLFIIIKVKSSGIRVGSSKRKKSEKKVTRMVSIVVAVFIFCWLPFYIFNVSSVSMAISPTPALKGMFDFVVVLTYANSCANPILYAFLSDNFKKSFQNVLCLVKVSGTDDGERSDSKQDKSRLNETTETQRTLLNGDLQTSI
UniProt P32745: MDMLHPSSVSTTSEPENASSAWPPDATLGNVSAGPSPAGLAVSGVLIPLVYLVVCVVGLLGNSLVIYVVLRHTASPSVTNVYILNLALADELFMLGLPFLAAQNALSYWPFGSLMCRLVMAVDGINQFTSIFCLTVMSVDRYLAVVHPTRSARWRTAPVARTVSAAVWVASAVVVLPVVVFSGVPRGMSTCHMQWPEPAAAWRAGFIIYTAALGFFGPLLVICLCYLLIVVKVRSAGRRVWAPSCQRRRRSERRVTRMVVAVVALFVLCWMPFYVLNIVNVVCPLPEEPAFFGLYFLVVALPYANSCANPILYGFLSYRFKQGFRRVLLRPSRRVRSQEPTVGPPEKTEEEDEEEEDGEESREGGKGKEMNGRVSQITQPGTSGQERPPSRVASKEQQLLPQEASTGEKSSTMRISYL

The term Ki denotes a dissociation constant, usually derived from enzyme kinetics or from competition with a known ligand.

For one assay, the target named is human SSTR-2 (Homo sapiens, UniProt P30874). The assay is described as follows: Somatostatin receptor binding assay, [125I-Tyr11]somatostatin-14, membranes of transfected CHO-K1 cells. The conditions noted are these: read-out: Ki hSSTR-2.
The next assay addresses human SSTR-3 (Homo sapiens, UniProt P32745). The assay is described as above. The conditions noted are these: read-out: Ki hSSTR-3.

Regarding `CC[C@@H]1NC(=O)[C@H](CCCCN)NC(=O)[C@@H](Cc2c[nH]c3ccccc23)NC(=O)[C@H](Cc2ccc(O)cc2)NC(=O)[C@@H](NC(=O)[C@@H](Cc2ccccc2)NS(=O)(=O)CCN2CCN(CCO)CC2)CSSC[C@@H](C(=O)N[C@H](C(N)=O)[C@@H](C)O)NC1=O` [BIM-23197], the Ki at human SSTR-2 amounted to 0.09 nM. In the case of `CC[C@@H]1NC(=O)[C@H](CCCCN)NC(=O)[C@@H](Cc2c[nH]c3ccccc23)NC(=O)[C@H](Cc2ccc(O)cc2)NC(=O)[C@@H](NC(=O)[C@@H](Cc2ccccc2)NC(=O)CN2CCN(CCO)CC2)CSSC[C@@H](C(=O)N[C@H](C(N)=O)[C@@H](C)O)NC1=O` [BIM-23190], the inhibition constant Ki at human SSTR-3 is 2150 nM.
